The experiment deals with TNFα. The experiment can be described thus: Cot Monocyte TNFα Cell Based Assay. The note with it: Homo sapiens, Monocyte.
[1] abbreviates: read-out: EC50 TNF, LPS-stimulated human monocytes, TNFα.

Molecules are shown by their SMILES. pEC50: −log10 of the molar value. Where two headings read alike, the source gives them in different places.

Consider `Cc1nc(F)ccc1[C@H](Nc1cc(C#N)c2ncc(C#N)c(NCC(C)(C)C(F)(F)F)c2c1)c1nnn(C2CC2)c1F` [Example 864, (S)-6-(((1-cyclopropyl-5-fluoro-1H-1,2,3-triazol-4-yl)(6-fluoro-2-methylpyridin-3-yl)methyl)amino)-4-((3,3,3-trifluoro-2,2-dimethylpropyl)amino)quinoline-3,8-dicarbonitrile], for which the pEC50 (read-out: EC50 TNF, LPS-stimulated human monocytes, TNFα TR-FRET) was 7.43. For the compound `Cc1nc(F)ccc1[C@H](Nc1cc(C#N)c2ncc(C#N)c(NCC(C)(C)C)c2c1)c1cn(C23CC(C2)C3)nn1` [Example 649, (S)-6-(((1-(bicyclo[1.1.1]pentan-1-yl)-1H-1,2,3-triazol-4-yl)(6-fluoro-2-methylpyridin-3-yl)methyl)amino)-4-(neopentylamino)quinoline-3,8-dicarbonitrile], under setting [1], the negative logarithm of the EC50 (pEC50) was 7.85. Same read-out and setting: the same measure for `Cn1ccc2c([C@H](Nc3cc(Cl)c4ncc(C#N)c(NCC(C)(C)C(F)(F)F)c4c3)c3cn(C45CC(C4)C5)nn3)cccc2c1=O` [Example 785, (S)-6-(((1-(bicyclo[1.1.1]pentan-1-yl)-1H-1,2,3-triazol-4-yl)(2-methyl-1-oxo-1,2-dihydroisoquinolin-5-yl)methyl)amino)-8-chloro-4-((3,3,3-trifluoro-2,2-dimethylpropyl)amino)quinoline-3-carbonitrile]: 7.64; for `CC(C)(C)CNc1c(C#N)cnc2c(Cl)cc(N[C@H](c3cn(C4CC4)nn3)c3csc4c3CCN(C3COC3)C4)cc12` [Example 80, (S)-8-chloro-6-(((1-cyclopropyl-1H-1,2,3-triazol-4-yl)(6-(oxetan-3-yl)-4,5,6,7-tetrahydrothieno[2,3-c]pyridin-3-yl)methyl)amino)-4-(neopentylamino)-quinoline-3-carbonitrile]: 7.64. On the same count and under the same terms, as for `Cn1cnc2cccc([C@H](Nc3cc(Cl)c4ncc(C#N)c(NCC(C)(C)C)c4c3)c3cn(C4(C(F)F)CC4)nn3)c21` [Example 499, (S)-8-chloro-6-(((1-(1-(difluoromethyl)-cyclopropyl)-1H-1,2,3-triazol-4-yl)(1-methyl-1H-benzo[d]imidazol-7-yl)methyl)amino)-4-(neopentylamino)-quinoline-3-carbonitrile], the figure is 7.01; as for `CCN1CCc2c([C@H](Nc3cc(Cl)c4ncc(C#N)c(Nc5ccc(F)c(Cl)c5)c4c3)c3c[nH]nn3)csc2C1` [Example 270, (S)-8-chloro-4-((3-chloro-4-fluoro-phenyl)amino)-6-(((6-ethyl-4,5,6,7-tetrahydrothieno[2,3-c]pyridin-3-yl)(1H-1,2,3-triazol-4-yl)methyl)-amino)quinoline-3-carbonitrile], 6.18. For the compound `CC(C)(C)CNc1c(C#N)cnc2c(Cl)cc(N[C@H](c3cn(C4(C(F)F)CC4)nn3)c3ccc(F)c4ncccc34)cc12` [Example 653, (S)-8-chloro-6-(((1-(1-(difluoromethyl)cyclopropyl)-1H-1,2,3-triazol-4-yl)(8-fluoroquinolin-5-yl)methyl)amino)-4-(neopentylamino)quinoline-3-carbonitrile], the pEC50 under setting [1] is 7.43. Still for that read-out and setting: as for `Cc1nc(F)ccc1[C@H](Nc1cc(Cl)c2ncc(C#N)c(NCC(C)(C)C)c2c1)c1cn(C2(C(N)=O)CCC2)nn1` [Example 478, (S)-1-(4-(((8-chloro-3-cyano-4-(neopentylamino)quinolin-6-yl)amino)(6-fluoro-2-methylpyridin-3-yl)methyl)-1H-1,2,3-triazol-1-yl)cyclobutane-1-carboxamide], the figure is 7.11; as for `CC1(n2cc([C@@H](Nc3cc(Cl)c4ncc(C#N)c(NCC(C)(C)C(F)(F)F)c4c3)c3cccc4ncccc34)nn2)CC1` [Example 797, (S)-8-chloro-6-(((1-(1-methylcyclopropyl)-1H-1,2,3-triazol-4-yl)(quinolin-5-yl)methyl)amino)-4-((3,3,3-trifluoro-2,2-dimethylpropyl)amino)quinoline-3-carbonitrile], 7.11.

These data come from patent US11066414B2, “Cot modulators and methods of use thereof” (Gilead Sciences, Inc., priority 2015, dated 2021).
